Laboratory results taken from ChEMBL document CHEMBL1152084 (Bioorg Med Chem Lett, 1997).

Amino acid sequences for entries named in this document (tags omitted).
UniProt Q02750, whole entry: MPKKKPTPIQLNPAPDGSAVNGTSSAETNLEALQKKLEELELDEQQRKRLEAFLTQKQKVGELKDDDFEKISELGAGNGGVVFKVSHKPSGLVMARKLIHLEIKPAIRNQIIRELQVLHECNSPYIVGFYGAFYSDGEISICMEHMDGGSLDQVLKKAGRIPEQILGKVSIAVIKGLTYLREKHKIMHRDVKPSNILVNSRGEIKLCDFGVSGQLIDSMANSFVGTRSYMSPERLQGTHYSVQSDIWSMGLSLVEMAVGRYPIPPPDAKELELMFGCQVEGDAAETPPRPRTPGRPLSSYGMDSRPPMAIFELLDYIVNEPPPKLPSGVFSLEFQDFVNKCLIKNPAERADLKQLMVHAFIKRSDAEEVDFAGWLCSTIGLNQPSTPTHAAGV

Molecular target: Dual specificity mitogen-activated protein kinase kinase 1 (Homo sapiens, UniProt Q02750)
Assay: Inhibition of MAPKK

SMILES: COc1ccc(Oc2ccnc3cc(OC)c(OC)cc23)cc1OC
- IC50: > 10 µM
